This is an account of results in paper PMC5378566, “Design, synthesis and evaluation in an LPS rodent model of neuroinflammation of a novel ^18F-labelled PET tracer targeting P2X7” (EJNMMI Research, 2017).

One may read the Ki as a dissociation constant, usually derived from enzyme kinetics or from competition with a known ligand. As usually defined, the IC50 is the point on the concentration scale where inhibition reaches its midpoint.

The target in test [1] is T1, rat P2X7 (Rattus norvegicus, UniProt Q64663).
T1 sequence (Q64663 1-595): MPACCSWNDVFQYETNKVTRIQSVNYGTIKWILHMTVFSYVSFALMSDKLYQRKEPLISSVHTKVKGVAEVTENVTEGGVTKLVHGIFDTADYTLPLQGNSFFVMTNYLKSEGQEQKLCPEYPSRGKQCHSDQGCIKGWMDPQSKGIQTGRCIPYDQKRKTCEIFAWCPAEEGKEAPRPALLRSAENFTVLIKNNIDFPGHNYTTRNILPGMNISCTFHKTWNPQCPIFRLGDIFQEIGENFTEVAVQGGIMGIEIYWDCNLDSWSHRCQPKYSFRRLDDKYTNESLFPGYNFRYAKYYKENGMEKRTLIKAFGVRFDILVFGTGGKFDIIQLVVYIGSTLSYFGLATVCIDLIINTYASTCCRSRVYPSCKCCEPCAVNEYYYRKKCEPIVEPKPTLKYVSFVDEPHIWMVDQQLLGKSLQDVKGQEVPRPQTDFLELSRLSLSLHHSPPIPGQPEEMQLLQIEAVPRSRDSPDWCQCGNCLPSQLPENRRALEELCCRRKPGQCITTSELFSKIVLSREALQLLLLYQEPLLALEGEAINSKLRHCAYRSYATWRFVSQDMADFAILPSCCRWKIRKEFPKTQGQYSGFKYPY
Kind of test: Calcium influx (Fura-2/AM) inhibition assay, BzATP-activated. Type of test: cell-based. Also on record: expressed in transfected cells. The following applies: Rat isoform.

For test [2], the target named is T1, rat P2X7. The note with it: Rat isoform, literature value from similar assay format; cited from earlier work.

As to `COc1ccc(CC(=O)NC(NC(=NC#N)Nc2cccc3ncccc23)C(C)(C)C)cc1OC` (stereo not drawn) [A-740003, N-(1-{[(Cyanoimino)(5-quinolinylamino)methyl]amino}-2,2-dimethylpropyl)-2-(3,4-dimethoxyphenyl)acetamide, reference compound], the Ki on rat P2X7 [1] (Cheng–Prusoff from pIC50 assuming competitive inhibition, BzATP 100 μM) was determined as 0.00867 µM. In addition, on rat P2X7 [1] (P2X7-HEK293, [BzATP] 100 μM), the IC50 was 1.74 µM. In addition, the “Lit. pIC50” value at rat P2X7 [2] is 7.75 [32].
